Test results reported in publication PMC7587356, “High-Throughput Screening for Inhibitors of the SARS-CoV-2 Protease Using a FRET-Biosensor” (Molecules, 2020).

Target: SARS-CoV-2 3CLpro (Severe acute respiratory syndrome coronavirus 2, UniProt P0DTD1)
Conditions: sheet LOPAC_screen_w_protease, primary screen with protease, compound at 5 µM; for mean: mean of two replicates; for Replicate_1: replicate 1; for Replicate_2: replicate 2

SMILES	mean	Replicate_1	Replicate_2
CC(C(O)c1ccc(O)cc1)N1CCC(Cc2ccccc2)CC1.CC(C(O)c1ccc(O)cc1)N1CCC(Cc2ccccc2)CC1.O=C(O)C(O)C(O)C(=O)O (stereo not drawn) [Ifenprodil tartrate]	2.584	3.5123	1.6558
CCN1CCC[C@H]1CNC(=O)c1c(O)c(Cl)cc(Cl)c1OC.O=C(O)C(O)C(O)C(=O)O (racemic) [S(+)-Raclopride L-tartrate]	3.077	3.795	2.359
